According to publication PMC10226132, “First-in-Class Selective Inhibitors of the Lysine Acetyltransferase KAT8” (Journal of Medicinal Chemistry, 2023):

Experiments:
KAT8 = biological target: T1, KAT8 (Homo sapiens, UniProt Q9H7Z6); assay: Radioactive KAT8 inhibition assay; type: biochemical; details: enzyme 5 nM; 2-fold serial dilution from 200 μM; NI = no inhibition at 200 μM; mean ± SD of three independent experiments
T1 construct: using the previously purified KAT8 (173–458, 5 nM); 6xHis tag with TEV protease cleavage site (N, cleaved yes); made in house; host or cells: E. coli BL21(DE3)
T1 sequence (Q9H7Z6 173-458): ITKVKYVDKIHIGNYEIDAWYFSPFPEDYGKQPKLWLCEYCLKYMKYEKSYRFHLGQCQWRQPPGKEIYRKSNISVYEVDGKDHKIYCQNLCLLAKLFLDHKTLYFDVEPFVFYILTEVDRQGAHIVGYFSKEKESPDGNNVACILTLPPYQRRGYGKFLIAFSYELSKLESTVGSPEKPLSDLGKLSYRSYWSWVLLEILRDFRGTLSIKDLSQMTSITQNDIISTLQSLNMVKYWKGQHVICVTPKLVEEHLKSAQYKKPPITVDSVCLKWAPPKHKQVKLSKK
Procedure: KAT8 inhibition assays were performed using the previously purified KAT8 (173–458, 5 nM), radio-isotope-labeled [^3H]Acetyl-CoA (Perkin Elmer, 3 μM) as the acetyl donor, and biotinylated H4 peptide (Sigma-Aldrich, 2.5 μM) as a substrate in a 100 mM NaCl, 40 mM Tris·HCl (pH 7.5), and 1 mM DTT assay buffer. Purified KAT8 was incubated with the relevant inhibitor (1% DMSO final) in a 2-fold serial dilution starting at 200 μM for 20 min at rt. Then, [^3H]Ac-CoA and biotinylated peptide were added to a total assay volume of 50 μL and the reaction mixture was incubated at rt for 4 h. The reaction was stopped, and the mixture was transferred to a 96-well streptavidin scintillant coated FlashPlate (Perkin Elmer) and incubated for 60 min at rt. The FlashPlate was washed with 0.1% Tween-20, and the liquid scintillation counting (MicroBeta Microplate Counter, Perkin Elmer) was employed to measure the radioactive signal. Experiments were performed in biological triplicates. Signal reduction compared to control was plotted (as inhibition percentage) as a function of compound concentration and fitted by nonlinear regression (GraphPad Prism 8.0) finally yielding the IC50 values.

KDAC8 = biological target: T2, KDAC8 (Homo sapiens, UniProt Q9BY41); assay: KDAC inhibition assay, KDAC8; type: biochemical; details: mean of three technical replicates
T2 sequence (Q9BY41 1-377): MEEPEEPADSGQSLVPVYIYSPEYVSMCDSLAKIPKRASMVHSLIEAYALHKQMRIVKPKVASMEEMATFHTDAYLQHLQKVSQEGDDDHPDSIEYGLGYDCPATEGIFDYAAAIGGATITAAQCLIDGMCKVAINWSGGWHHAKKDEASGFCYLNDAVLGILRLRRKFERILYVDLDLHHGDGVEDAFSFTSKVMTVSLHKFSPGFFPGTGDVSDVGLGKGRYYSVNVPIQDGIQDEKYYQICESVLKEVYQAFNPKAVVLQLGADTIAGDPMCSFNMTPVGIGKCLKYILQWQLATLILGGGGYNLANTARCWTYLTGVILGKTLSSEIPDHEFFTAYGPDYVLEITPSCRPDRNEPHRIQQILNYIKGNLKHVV
Procedure: KDAC1, 2, 3 6, and 8 inhibition assays were performed as described previously.[52] Briefly, the relevant human recombinant KDAC was diluted in an assay buffer with the following composition: 150 mM NaCl, 25 mM Tris–HCl (pH 8.0), 2.7 mM KCl, and 1 mM MgCl2; BSA (0.1 mg/mL) was also added in the case of KDAC1. Forty microliters of this solution were added to 10 μL of each inhibitor ([…]) and 50 μL of KDAC Assay substrate (Boc-Lys-(Ac)-AMC, 7–100 μM final concentration, depending on the KDAC isoform), and the resulting solution was mixed. […]. After thorough mixing of the resulting solution, the plate was covered and incubated at 37 °C for 25 min and the fluorescence (λemission = 460 nm; λexcitation = 390 nm) was measured on a EnSight Multimode Plate Reader (Perkin Elmer). The shown values are average of three technical replicates ± SD.

Row | IC50 (KAT8) | % Inhibition at 50 µM KDAC8 (KDAC8; 50 µM) | % Inhibition at 100 µM KDAC8 (KDAC8; 100 µM) | SMILES
1 | 30.2 ± 2.1 µM |  |  | CCCCCCCCCCCCCCCc1cccc(O)c1C(=O)O [I (AA), anacardic acid, reference compound]
2 |  | 98.9% | 99.6% | O=C(CCCCCCC(=O)Nc1ccccc1)NO [SAHA, reference compound]
